Article PMC7723054
This is one part of the list.

T1: LIN28A (human?, UniProt Q9H9Z2 1-209)
T1 sequence: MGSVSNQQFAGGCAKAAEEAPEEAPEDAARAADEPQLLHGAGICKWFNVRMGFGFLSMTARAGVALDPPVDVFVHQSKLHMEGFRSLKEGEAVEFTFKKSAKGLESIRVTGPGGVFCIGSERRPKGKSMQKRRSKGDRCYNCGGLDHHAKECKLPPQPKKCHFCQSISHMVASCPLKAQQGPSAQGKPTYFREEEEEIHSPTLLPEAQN

T2: CIRBP (Homo sapiens, UniProt Q14011 1-172)
T2 sequence: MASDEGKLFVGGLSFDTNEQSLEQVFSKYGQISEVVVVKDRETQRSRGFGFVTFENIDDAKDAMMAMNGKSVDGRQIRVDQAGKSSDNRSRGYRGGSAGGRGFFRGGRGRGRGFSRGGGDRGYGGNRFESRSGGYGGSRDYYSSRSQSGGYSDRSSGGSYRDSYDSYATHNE

T3: DHX36 (Homo sapiens, UniProt Q9H2U1 1-1008)
T3 sequence: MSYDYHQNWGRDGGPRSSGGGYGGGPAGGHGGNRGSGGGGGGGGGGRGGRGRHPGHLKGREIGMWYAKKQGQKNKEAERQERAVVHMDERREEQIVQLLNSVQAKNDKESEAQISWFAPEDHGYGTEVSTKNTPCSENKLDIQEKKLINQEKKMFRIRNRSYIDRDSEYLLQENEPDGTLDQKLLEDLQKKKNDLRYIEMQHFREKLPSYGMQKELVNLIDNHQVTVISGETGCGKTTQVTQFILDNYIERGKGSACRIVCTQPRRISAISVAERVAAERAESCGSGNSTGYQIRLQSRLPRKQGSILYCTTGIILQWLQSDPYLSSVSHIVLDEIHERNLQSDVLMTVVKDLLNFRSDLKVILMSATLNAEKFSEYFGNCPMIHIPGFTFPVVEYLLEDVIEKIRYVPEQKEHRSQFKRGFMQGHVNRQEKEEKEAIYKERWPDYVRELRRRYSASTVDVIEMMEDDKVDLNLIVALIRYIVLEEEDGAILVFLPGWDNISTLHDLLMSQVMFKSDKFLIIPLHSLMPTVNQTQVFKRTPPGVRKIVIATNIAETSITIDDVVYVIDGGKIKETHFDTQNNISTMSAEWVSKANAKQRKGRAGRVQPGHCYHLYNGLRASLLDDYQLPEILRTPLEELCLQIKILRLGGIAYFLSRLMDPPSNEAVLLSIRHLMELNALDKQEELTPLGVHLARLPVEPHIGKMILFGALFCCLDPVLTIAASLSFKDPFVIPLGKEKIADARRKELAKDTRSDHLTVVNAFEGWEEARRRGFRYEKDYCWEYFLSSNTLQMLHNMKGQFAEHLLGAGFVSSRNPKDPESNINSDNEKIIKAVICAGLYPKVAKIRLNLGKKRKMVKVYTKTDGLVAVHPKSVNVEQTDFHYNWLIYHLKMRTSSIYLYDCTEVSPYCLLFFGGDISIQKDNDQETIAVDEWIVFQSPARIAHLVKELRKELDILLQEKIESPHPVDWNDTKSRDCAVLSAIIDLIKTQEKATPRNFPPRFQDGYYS

B1: hsa-mir-518f (structured_RNA)
RNA: GGGAAACGAGAGUUACGUUCAUGCUAUCGGUGUACGAAGUUUCAGCUUUCUCUUGUCUAAAAGAAAAGAAAGCUGAAGCUUCGUGCAC
B2: hsa-mir-590 (structured_RNA)
RNA: GGGACAGUAUCCGAGCGUUCUGCCACUGGGUGUACGAAGUUUCAGCAGUGCAGUAUGGUGAAGUCAAUCUGUAAUGCUGAAGCUUCGUGCAC
B3: hsa-mir-208a (structured_RNA)
RNA: GGGACUCUCGGAGUAAUGAGGUUUCACGGGUGUACGAAGUUUCAGCUUAUACCUGAUGCUCACGUAUAAGCUGAAGCUUCGUGCAC
B4: hsa-mir-4263 (structured_RNA)
RNA: GGGAGUAAGUUGACAGCGUGCAAUACCCGGUGUACGAAGUUUCAGCGGAGAUUGGAGUGGCCAGUGUUCCUAAACAAUUCGCUGAAGCUUCGUGCAC
B5: hsa-mir-4256 (structured_RNA)
RNA: GGGACCGGAGAACGGUACAAUAACGGUUGGUGUACGAAGUUUCAGCAGGUCUCCUGGCAUGCUGAAGCUUCGUGCAC
B6: hsa-mir-3675 (structured_RNA)
RNA: GGGACGUGAACCCAGGUGCCGUGUAAAAGGUGUACGAAGUUUCAGCGAUUUCUAUGAGAACAUCGCUGAAGCUUCGUGCAC
B7: hsa-mir-4709 (structured_RNA)
RNA: GGGAGACUUACCAGCGCCGAGAAUCAGUGGUGUACGAAGUUUCAGCCCAAUGGUAUCCAGUGAUUCGUUGAGCUGAAGCUUCGUGCAC
B8: hsa-mir-7108 (structured_RNA)
RNA: GGGACGGCGAAGACCGCAAAUCUGUAUUGGUGUACGAAGUUUCAGCGGGUGGGCGGGGGCGGCCGGUGGGAACCCCGCCCCGCCCCGCGCCCGCACUCACCCGCUGAAGCUUCGUGCAC
B9: hsa-mir-26a-2 (structured_RNA)
RNA: GGGAAAAGGGGCAGCGCAGCAAUAAAACGGUGUACGAAGUUUCAGCUAGGCUGUUUCCAUCUGUGAGGCCUAGCUGAAGCUUCGUGCAC
B10: hsa-mir-2116 (structured_RNA)
RNA: GGGAAUAGAUCGUUUUACUACCUGGGCGGGUGUACGAAGUUUCAGCGAGGUCUUCCCAUGCUAAGAAGUCCUCGCUGAAGCUUCGUGCAC
B11: hsa-mir-6873 (structured_RNA)
RNA: GGGAAACGUCCCAACAGGAGUCCUAGCAGGUGUACGAAGUUUCAGCGCAAUCAGGACUGGGUCAUUCGCUGAAGCUUCGUGCAC
B12: hsa-mir-524 (structured_RNA)
RNA: GGGAACAAGACCUCCCCAGACCUCUAGUGGUGUACGAAGUUUCAGCUUUCUCUUGUCCAAAGGAAAAGAAGGCUGAAGCUUCGUGCAC
B13: hsa-mir-4711 (structured_RNA)
RNA: GGGAAAUAGCGAGCCACGUCAAACGGAAGGUGUACGAAGUUUCAGCCAUGAGCCCUUUGGAAAGGUCUCGUGGCUGAAGCUUCGUGCAC

These binders were tested against T1, LIN28A (assay: FOREST: bead pull-down of RNA structure library v1, barcode microarray; U1A/LIN28A: 20 mM HEPES pH 7.5, 80 mM KCl, 20 mM NaCl, 10% glycerol, 2 mM DTT, 0.1 ug/uL BSA, 4 C; BG4/CIRBP/DHX36: 10 mM Tris-HCl pH 7.5, 100 mM KCl (or LiCl),; high values mean tight binding).

| Binder | binding signal |
| --- | --- |
| B1 | -0.36 z-score |
| B2 | -0.362 z-score |
| B3 | -0.362 z-score |
| B4 | -0.363 z-score |
| B5 | -0.364 z-score |
| B6 | -0.365 z-score |
| B7 | -0.371 z-score |
| B8 | -0.377 z-score |
| B9 | -0.378 z-score |
| B10 | -0.378 z-score |
| B11 | -0.382 z-score |
| B12 | -0.382 z-score |
| B13 | -0.383 z-score |

Each binder was assayed against T2, CIRBP in the same assay as above.

| Binder | binding signal |
| --- | --- |
| B1 | 1.19 z-score |
| B2 | 0.118 z-score |
| B3 | 0.679 z-score |
| B4 | -0.804 z-score |
| B5 | 0.48 z-score |
| B6 | 1.12 z-score |
| B7 | -0.349 z-score |
| B8 | -0.135 z-score |
| B9 | 0.363 z-score |
| B10 | -1.47 z-score |
| B11 | 0.508 z-score |
| B12 | 0.917 z-score |
| B13 | 1.95 z-score |

These binders were tested against T3, DHX36 in the same assay as above.

| Binder | binding signal |
| --- | --- |
| B1 | -1.2 z-score |
| B2 | 0.0247 z-score |
| B3 | -0.289 z-score |
| B4 | 0.441 z-score |
| B5 | -0.17 z-score |
| B6 | 0.391 z-score |
| B7 | 0.439 z-score |
| B8 | 4.23 z-score |
| B9 | -0.0264 z-score |
| B10 | -0.722 z-score |
| B11 | -0.481 z-score |
| B12 | -0.394 z-score |
| B13 | 0.444 z-score |
